In PubChem BioAssay AID485273 (Sanford-Burnham Center for Chemical Genomics, 2010):
This is a selection; strong and weak results do not stand in their true shares. Activity calls are given as the source filed them. No stated cut-off is given here; in the data, active means inhibition above about 45% (passing the limit was not always enough); inconclusive means no clear call, values can overlap the other calls.

Protein sequences, listed by entry. Tags and fused reporters are not part of them.
UniProt P61088, whole entry, looked up: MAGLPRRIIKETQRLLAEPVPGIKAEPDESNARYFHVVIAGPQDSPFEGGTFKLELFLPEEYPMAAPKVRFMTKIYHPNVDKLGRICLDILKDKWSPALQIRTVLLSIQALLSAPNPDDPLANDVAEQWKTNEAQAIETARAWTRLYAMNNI

What follows are molecules tested against Ubiquitin-conjugating enzyme E2 N (Homo sapiens) (UniProt P61088) (assay: blockers of UBC13 ubiquitin chain synthesis – biochemical, TR-FRET, uHTS, primary screen (AID 485273)). Settings: UBC13 polyubiquitin chain formation, at 20 µM, active compounds read high.

SMILES | inhibition
CCC(=O)N(c1ccccc1)C1(COC)CCN(CCc2cccs2)CC1 | inactive: 2.9%
CCC(=O)N(c1ccccc1)C1(COC)CCN(CCn2nnn(CC)c2=O)CC1 | inactive: -19%
